Earlier results in patent US8476408B2, “Unacylated ghrelin and analogs as therapeutic agents for vascular remodeling in diabetic patients and treatment of cardiovascular disease” (Alize Pharma SAS, priority 2008, dated 2013).

Chains of the proteins cited; added tags and fusions are not shown.
UniProt Q92847, whole entry: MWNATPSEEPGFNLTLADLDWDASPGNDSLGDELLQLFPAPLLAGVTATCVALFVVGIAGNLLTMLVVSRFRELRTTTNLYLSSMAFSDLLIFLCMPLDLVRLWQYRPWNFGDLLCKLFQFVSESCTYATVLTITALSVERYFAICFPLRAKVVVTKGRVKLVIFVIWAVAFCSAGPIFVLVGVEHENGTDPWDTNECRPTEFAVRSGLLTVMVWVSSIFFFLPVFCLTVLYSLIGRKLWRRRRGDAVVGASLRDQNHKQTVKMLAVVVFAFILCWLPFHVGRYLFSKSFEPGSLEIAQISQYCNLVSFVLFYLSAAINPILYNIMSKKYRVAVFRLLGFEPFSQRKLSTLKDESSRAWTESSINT

Molecular target: GHSR-1a (Homo sapiens, UniProt Q92847)
Settings: cited from earlier work

In the case of “des Gln-14 Ghrelin: isoform of ghrelin-28, a 27 amino acid peptide possessing serine 3 modification by n-octanoic acid (GSSFLSPEHQRVQRKESKKPPAKLQPR; n-octanoyl on Ser3; listed as Homo sapiens) [reference compound]”, the “binding to GHSR-1a” value is given as “binds to GHSR-1a with similar binding affinity”.
